Results: patent publication US20240043514A1, “NOVEL METHOD FOR PRODUCING ANTIBODIES” (TSINGHUA UNIVERSITY, priority 2017, published 2024)

How the values were obtained:
PBMCs [1] = assay: In vitro immunization (IVI) of PBMCs, antigen-specific IgG/IgM production by ELISA; format: cell-based, human; settings: amplified PBMCs, antigen TrkA, with CD40L, IL2, IL21, CpG ODN, culture 10-14 days
Description: (§1) PBMCs were washed and diluted with PIV culture medium. Cell density was adjusted to 1*10^^7 cells/ml, treateder with 0.25 mM LLME for about 20 min. Discarded supernatant, and re-suspended cell with PIV culture medium. Adjusted cell density to 9*10^^5 cells/ml. Transferred cells suspension into 96 well plate, and added 2 μg/ml antigen, and 10 ng/ml IL2, 50 ng/ml IL21, CD40L, ICOS, synthesized TLR7/8 agonist, or any desired factors or combination thereof respectively. Cultured the tissue for 7 days at 37° C., 5% CO2. Changed half of the medium and added factor cocktail on day 7. Cultured the cells for 7-21 days at 37° C., 5% CO2. Collected the supernatant on day 7, day 14, or day 21 for analysis of antibody production by ELISA, whereas the pellets are used for testing gene expression by PCR or RT-PCR. The collected cells were also tested in ELISpot assay for FACS analysis. […]
After day7 or day14 with addition of cytokines or antibody-enhancing composition and antigens, supernatants were harvested and added to antigen OVA-coated plates. After 2 hr incubation, a HRP-conjugated anti-human IgG or anti-human IgM was added, the amount of antigen-specific antibody was measured using TMB as substrate. […]
An exemplary cytokine, IL1β, was tested. […] After 7 or 14 days, supernatants were harvested, and IgG/IgM antibody production was measured by ELISA assay.

PBMCs [2] = assay: PBMC proliferation, cell density counted by hemocytometer; format: cell-based, human
Description: FIG. 1 illustrates that IL2 stimulates PBMC proliferation. PBMCs were immunized in vitro with the antigen TrkA (2 μg/ml) in the presence of various stimulants as indicated for 14 days. Cell density was counted by Hemocytometer. Note that treatment with IL2 increased cell density by 15 folds. Concentration of the stimulants added: avasmibe, 10 μM/ml; CpG ODN, 2 μg/ml; IL21, 50 ng/ml; 112, 10 ng/ml; IL4, 10 ng/ml; BAFF, 50 ng/ml.
PBMC in vitro (PIV) culture medium: (RPMI1640:DMEM:Ham's F12=1:1:2) supplemented with 10% FBS. Fresh PBMC was harvested from several healthy donors (about 40 ml/time/person). PBMC was separated by density-gradient centrifugation as previously described in human monoclonal antibody book. Cell number was counted with a hemocytometer.
as §1, with “CO2.” for “CO2. Collected the supernatant on day 7, day 14, or day 21 for analysis of antibody production by ELISA, whereas the pellets are used for testing gene expression by PCR or RT-PCR. The collected cells were also tested in ELISpot assay for FACS analysis.”

Substance: ICOSL: Human ICOS Ligand/B7-H2/ICOSLG (Histag)
- antibody level among all the stimulants (PBMCs [1]): the highest antibody level among all the stimulants

Substance: IL2: interleukin-2, cytokine; part of 'basic' medium at 10 ng/ml
- increase of cell density (PBMCs [2]; PBMCs immunized with TrkA 2 μg/ml, 14 days, IL2 10 ng/ml): 15 folds
- promotion of cell proliferation compared with other stimulants (PBMCs [2]; antigen TrkA with various factors, FIG. 1): the most potent stimulant that promotes cell proliferation
